The target of the assay is Neuromedin-K receptor (Cavia porcellus, UniProt P30098). Put plainly: Ability to displace [3H]senktide succinyl-[Asp9MePhe8]-SP (6-13)} from Tachykinin receptor 3 of guinea pig cerebral cortex membrane. The assay is classed as tissue-based.

Protein sequences, listed by entry. Tags and fused reporters are not part of them.
UniProt P30098, whole entry: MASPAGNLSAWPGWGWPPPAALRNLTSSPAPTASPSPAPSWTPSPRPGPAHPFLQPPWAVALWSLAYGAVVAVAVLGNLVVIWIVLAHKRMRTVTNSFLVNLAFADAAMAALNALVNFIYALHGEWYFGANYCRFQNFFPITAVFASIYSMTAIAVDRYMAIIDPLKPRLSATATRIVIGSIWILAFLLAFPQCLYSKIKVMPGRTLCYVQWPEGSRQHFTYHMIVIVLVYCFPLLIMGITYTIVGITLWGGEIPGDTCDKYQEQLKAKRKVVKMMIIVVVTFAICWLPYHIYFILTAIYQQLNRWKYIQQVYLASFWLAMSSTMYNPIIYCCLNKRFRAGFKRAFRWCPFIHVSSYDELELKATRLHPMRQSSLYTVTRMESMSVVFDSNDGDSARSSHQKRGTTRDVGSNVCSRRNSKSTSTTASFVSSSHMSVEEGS

This note sets out measurements from ChEMBL document CHEMBL1129332, “2-Phenyl-4-quinolinecarboxamides: a novel class of potent and selective non-peptide competitive antagonists for the human neurokinin-3 receptor” (J Med Chem, 1996).

The IC50 is the concentration at which inhibition is half-maximal. Take `CC(=O)N(C)C1(c2ccccc2)CCN(CCC[C@]2(c3ccc(Cl)c(Cl)c3)CCCN(C(=O)c3ccccc3)C2)CC1` [OSANETANT]: the IC50 was found to be 0.32 µM.
